In patent publication US10251849B2, “Sublingual compositions including epinephrine nanoparticles” (NOVA SOUTHEASTERN UNIVERSITY, priority 2012, dated 2019):
Counter-ions that a name gives are not always drawn.

Conditions: 0.7 mg/ml, 2 passes at 30 KPsi
Experimental: Samples were prepared in triplicates for each concentration, n=3. All prepared samples were processed using LV-1 High Shear Fluid Processor “Microfluidizer” (Microfluidics, Newton, Mass.) equipped with G10Z reaction chamber under various pressures ranging from 15 to 30 KPsi for single or several passes. The microfluidizer-receiving coil was immersed in ice to reduce the heat produced during the process for heat-sensitive drugs. The particle size and potential of the produced nanosuspension were measured. The nanosuspension was centrifuged at 15,000 rpm and 15° C. for 30 minutes to collect the nanoparticles, and the solvent was then removed. The collected nanoparticles were completely dried by speed vacuum concentrator or lyophilization.
Nanoparticle Characterization: The particle size distribution and zeta potential of the nanosuspension was measured before and after size reduction by volume and by intensity using Mastersizer (Malvern) and Zetasizer Nano-ZS90 (Malvern), respectively. The average of 3 measurements for each sample was reported.

CNC[C@H](O)c1ccc(O)c(O)c1 [epinephrine bitartrate, (−)-3,4-dihydroxy-α-[(methylamino)methyl]benzyl alcohol (+)-tartrate (1:1) salt]
Mean ± SD particles size (Z-Average): 879 ± 376 nm
